Experimental data from US6342504B1, “Aromatic heterocyclic derivatives as enzyme inhibitors” (priority 1994, dated 2002).

Chains of the proteins cited; added tags and fusions are not shown. Residues count along the entry.
UniProt P00747, 97-580: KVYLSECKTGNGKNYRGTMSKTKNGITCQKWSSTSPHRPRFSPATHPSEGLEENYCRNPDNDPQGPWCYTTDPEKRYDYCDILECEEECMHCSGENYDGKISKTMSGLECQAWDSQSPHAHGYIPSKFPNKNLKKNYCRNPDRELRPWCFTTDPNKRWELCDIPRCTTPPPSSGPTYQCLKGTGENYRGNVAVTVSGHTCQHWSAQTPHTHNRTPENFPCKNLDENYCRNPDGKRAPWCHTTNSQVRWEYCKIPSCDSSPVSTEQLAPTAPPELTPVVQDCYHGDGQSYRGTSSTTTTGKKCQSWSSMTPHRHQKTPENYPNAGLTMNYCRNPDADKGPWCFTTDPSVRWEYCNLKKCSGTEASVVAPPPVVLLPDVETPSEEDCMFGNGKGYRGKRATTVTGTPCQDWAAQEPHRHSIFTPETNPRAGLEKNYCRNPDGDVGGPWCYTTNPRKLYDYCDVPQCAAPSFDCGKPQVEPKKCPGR
UniProt P00747, 581-810: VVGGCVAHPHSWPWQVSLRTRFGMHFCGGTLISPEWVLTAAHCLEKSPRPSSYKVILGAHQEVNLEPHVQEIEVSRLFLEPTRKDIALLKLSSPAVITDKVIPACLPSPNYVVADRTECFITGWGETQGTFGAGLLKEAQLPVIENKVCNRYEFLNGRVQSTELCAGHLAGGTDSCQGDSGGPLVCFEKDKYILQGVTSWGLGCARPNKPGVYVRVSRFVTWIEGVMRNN
UniProt P00750, 36-562: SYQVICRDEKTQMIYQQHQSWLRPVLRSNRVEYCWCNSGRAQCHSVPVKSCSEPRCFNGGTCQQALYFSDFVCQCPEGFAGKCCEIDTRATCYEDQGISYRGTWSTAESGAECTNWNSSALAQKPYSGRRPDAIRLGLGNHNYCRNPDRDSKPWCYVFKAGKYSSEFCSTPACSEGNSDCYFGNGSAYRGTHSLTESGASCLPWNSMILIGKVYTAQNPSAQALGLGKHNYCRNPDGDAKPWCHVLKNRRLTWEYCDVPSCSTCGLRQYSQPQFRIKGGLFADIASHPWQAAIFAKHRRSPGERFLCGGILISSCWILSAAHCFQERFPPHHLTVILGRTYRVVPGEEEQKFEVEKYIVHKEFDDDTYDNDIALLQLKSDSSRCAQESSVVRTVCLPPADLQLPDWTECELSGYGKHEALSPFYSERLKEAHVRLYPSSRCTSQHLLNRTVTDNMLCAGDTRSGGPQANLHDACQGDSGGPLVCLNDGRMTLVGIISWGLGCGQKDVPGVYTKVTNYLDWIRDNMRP
UniProt P04070, 43-197: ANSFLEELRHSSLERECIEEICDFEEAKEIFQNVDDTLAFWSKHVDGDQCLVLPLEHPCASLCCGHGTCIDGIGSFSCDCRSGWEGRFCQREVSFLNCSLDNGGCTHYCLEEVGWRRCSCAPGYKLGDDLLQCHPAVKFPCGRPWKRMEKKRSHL
UniProt P04070, 212-461: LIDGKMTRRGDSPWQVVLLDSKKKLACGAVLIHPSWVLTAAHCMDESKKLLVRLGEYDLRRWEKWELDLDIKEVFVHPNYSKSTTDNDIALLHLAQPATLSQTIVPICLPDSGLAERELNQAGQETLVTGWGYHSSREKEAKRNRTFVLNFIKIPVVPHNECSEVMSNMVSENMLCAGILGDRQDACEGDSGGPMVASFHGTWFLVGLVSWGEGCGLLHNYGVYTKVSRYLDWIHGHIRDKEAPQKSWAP

Tests used:
Format in all cases: biochemical
human plasmin = human plasmin (Homo sapiens, UniProt P00747); conditions: 30 minute incubation; read-out: Plasmin IC50 (Table 3C)
Protocol: (§1) The ability of compounds of the present invention to act as a selective inhibitor of thrombin catalytic activity was assessed by determining the concentration of compound which inhibited the activity of this enzyme by 50%, (IC50), and comparing this value to that determined for all or some of the following related serine proteases: recombinant tissue plasminogen activator (rt-PA), plasmin, activated protein C, chymotrypsin, factor Xa and trypsin.
(§2) The buffer used for all assays was HBSA (10 mM HEPES, pH 7.5, 150 mM sodium chloride, 0.1% bovine serum albumin).
(§3) The assay for IC50 determinations was conducted by combining in appropriate wells of a Corning microtiter plate, 50 microliters of HBSA, 50 microliters of the test compound at a specified concentration (covering a broad concentration range) diluted in HBSA (or HBSA alone for VO (uninhibited velocity) measurement), and 50 microliters of the enzyme diluted in HBSA. Following a 30 minute incubation at ambient temperature, 50 microliters of the substrate at the concentrations specified below were added to the wells, yielding a final total volume of 200 microliters. The initial velocity of chromogenic substrate hydrolysis was measured by the change in absorbance at 405 nm using a Thermo Max® Kinetic Microplate Reader over a 5 minute period in which less than 5% of the added substrate was utilized. The concentration of added inhibitor which caused a 50% decrease in the initial rate of hydrolysis was defined as the IC50 value.
Plasmin catalytic activity was determined using the chromogenic substrate, S-2366 [L-pyroglutomyl-L-prolyl-L-arginine-p-nitroaniline hydrochloride], which was obtained from Pharmacia-Upjohn. The substrate was made up in deionized water followed by dilution in HBSA prior to the assay in which the final concentration was 300 micromolar (about 2.5-times Km). Purified human plasmin was obtained from Enzyme Research Laboratories, Inc. The enzyme was diluted into HBSA prior to assay in which the final concentration was […].

Human rt-PA (Activase) = target: T1, Human rt-PA (Activase) (Homo sapiens, UniProt P00750); conditions: 30 minute incubation; read-out: rtPA IC50 (Table 3C)
T1 construct: purchased Genentech Inc
Protocol: as §1, §2, §3
Recombinant Tissue Plasminogen Activator (rt-PA) Assay
rt-PA catalytic activity was determined using the substrate, Pefachrome t-PA (CH3SO2-D-hexahydrotyrosine-glycyl-L-arginine-p-nitroaniline, obtained from Pentapharm Ltd.). The substrate was made up in deionized water followed by dilution in HBSA prior to the assay in which the final concentration was 500 micromolar (about 3-times Km). Human rt-PA (Activase®) was obtained from Genentech Inc. The enzyme was reconstituted in deionized water and diluted into HBSA prior to the assay in which the final concentration was 1.0 nM.

human aPC = target: T2, human aPC (Homo sapiens, UniProt P04070); conditions: 30 minute incubation; read-out: aPC IC50 (Table 3C)
T2 construct: purchased Hematologic Technologies, Inc
Protocol: as §2
Following a 30 minute incubation at ambient temperature, 50 microliters of the substrate at the concentrations specified below were added to the wells, yielding a final total volume of 200 microliters. The initial velocity of chromogenic substrate hydrolysis was measured by the change in absorbance at 405 nm using a Thermo Max® Kinetic Microplate Reader over a 5 minute period in which less than 5% of the added substrate was utilized.
Activated Protein C (aPC) Assay
aPC catalytic activity was determined using the chromogenic substrate, Pefachrome PC (delta-carbobenzloxy-D-lysine-L-prolyl-L-arginine-p-nitroaniline dihydrochloride), obtained from Pentapharm Ltd.). […] Purified human aPC was obtained from Hematologic Technologies, Inc. The enzyme was diluted into HBSA prior to assay in which the final concentration was 1.0 nM.

Row | Substance | IC50 (human plasmin) [nM] | IC50 (Human rt-PA (Activase)) [nM] | IC50 (human aPC) [nM]
1 | [2,3-methylenedioxy-benzene)sulfonylamino-2-oxo-1,2-dihydropyridyl]acetyl-L-argininal [Compound 152D] | > 2500 |  | 
2 | [5-(1,3-benzodioxole)sulfonylalmino-6-methyl-2-oxo-1,2-dihydro-pyridyl]acetyl-L-argininal [Compound 153D] | > 2500 | > 2500 | > 2500
3 | [5-(1,3-benzodioxole)sulfonylamino-2-oxo-1,2-dihydropyridyl]acetyl-L-argininal [Compound 152A] | > 2500 | > 2500 | > 2500
4 | [5-(1,4-benzodioxan)sulfonylamino-6-methyl-2-oxo-1,2-dihydro-pyridyl]acetyl-L-argininal [Compound 153B] | > 2500 | > 2500 | > 2500
5 | [5-(2,3-dihydrobenzofuran)sulfonylamino-6-methyl-2-oxo-1,2-dihydro-pyridyl]acetyl-L-argininal [Compound 153C] | > 2500 |  | 
6 | [5-(2,3-dioxaspirocyclohexyl)-sulfonylamino-2-oxo-1,2-dihydropyridyl]acetyl-L-argininal [Compound 152C] | > 2500 |  | 
